Source: ChEMBL document CHEMBL3425442, “Tetrahydroindazoles as Interleukin-2 Inducible T-Cell Kinase Inhibitors. Part II. Second-Generation Analogues with Enhanced Potency, Selectivity, and Pharmacodynamic Modulation in Vivo” (J Med Chem, 2015)

Species: Homo sapiens
Experiment: Selectivity ratio of Ki for LCK (unknown origin) to Ki for GST-tagged recombinant full length human ITK

CC1(C)CCc2c(C(=O)Nc3cnn(Cc4ccccc4)c3)n[nH]c2C1
Ratio Ki: 340
